Data set [1] relates to HER2-overexpressing BT474 breast cancer spheroids. The data set can be described thus: Spheroid outgrowth assay, BT474. The note with it: 100-μm radius; 9.25 kBq/mL total. Type of data set: cell-based, human. As for the experimental part: As an indirect surrogate of tumor recurrence, an outgrowth assay was performed on HER2-overexpressing BT474 breast cancer spheroids, and HER1-moderately expressing MDA-MB-231 triple negative breast cancer spheroids. Spheroids were treated with ^225Ac-DOTA NP, ^225Ac-DOTA-SCN-Ab, or the cocktail containing the combination of ^225Ac-DOTA NP and ^225Ac-DOTA-SCN-Ab (NP+Ab). Upon exposure to treatment (6 and 24 hours for NPs and Abs, respectively, to match their corresponding circulation half-lives in mice), spheroids were plated on adherent surfaces and cells were allowed to grow. The cells were counted when the cells from untreated spheroids reached confluency. The number of live cells was then reported as % outgrowth relative to the counted numbers of cells that received no treatment.
Spheroids were incubated for 6 hours with [^225Ac]Ac-DOTA-loaded liposomes (1-mM total lipid) and/or 24 hours with [^225Ac]Ac-DOTA-SCN-Trsastuzumab (10 μg/mL). Upon completion of incubation, spheroids were transferred to fresh media and the spheroid volume was monitored until the non-treated spheroids stopped growing (17 days later) at which point spheroids were individually plated on cell culture treated, flat-bottom 96-well plates and were allowed to grow. […]

For data set [2], the system named is Trastuzumab-resistant BT474-R breast cancer cells. Kind of data set: Clonogenic (colony) survival, BT474-R. Format: cell-based, human. The note with it: 6 hour incubation at 37° C.; pH 7.4 or 6.0; monolayers. As for the experimental part:
(§1) FIG. 9A, FIG. 9B, FIG. 9C, and FIG. 9D show colony survival of Trastuzumab-sensitive BT474 (top panel, FIG. 9A and FIG. 9B, 1.50±0.10×10^6 HER2 copies/cell) and Trastuzumab-resistant BT474-R (lower panel, FIG. 9C and FIG. 9D, 0.93±0.04×10^6 HER2 copies/cell) breast cancer cells following a 6 hour incubation at 37° C. with free [^225Ac]Ac-DOTA (gray symbols), tumor-responsive liposomes loaded with [^225Ac]Ac-DOTA (black symbols) and radiolabeled Trastuzumab ([^225Ac]Ac-DOTA-SCN-Ab) (white symbols) at extracellular pH values of 7.4 (FIG. 9A and FIG. 9C) or 6.0 (FIG. 9B and FIG. 9D, as the lowest expected acidic value of the tumor interstitial pHe). Radiolabeled Trastuzumab's specific activity was 2.9 MBq/mg (78.3 μCi/mg) at the highest radioactivity concentration. Cold conditions of liposomes and the antibody are indicated at zero radioactivity concentration. Error bars correspond to standard deviations of repeated measurements (4-6 samples per radioactivity concentration);
(§2) After incubation for 6 hours of cell monolayers with varying concentrations of radioactivity, the cells were washed and were plated in dishes to grow until formation of colonies, as described in detail in Prasad et al., 2021.

Data set [3] relates to Trastuzumab-sensitive BT474 breast cancer cells. Kind of data set: Clonogenic (colony) survival, BT474. Type of data set: cell-based, human. The note with it: 6 hour incubation at 37° C.; pH 7.4 or 6.0; monolayers. How it is done: as §1, §2
On the set-up of data set [4]: species or system mice. The note with it: mouse, in vivo, iv. How it is done: Upon tumors reaching 50 mm^3, mice were randomly assigned to a group. […] The total mass of antibody was kept constant at 15 μg/mouse. Every other day, mice were weighed, and tumor volumes were measured with a digital caliper (resolution 0.01 mm).

“[^225Ac]Ac-DOTA-SCN-Trastuzumab: HER2-targeting antibody Trastuzumab radiolabeled with Actinium-225 via p-SCN-Bn-DOTA”: in data set [1], the “suppression of spheroid outgrowth, small spheroids” value is listed as “most efficient”. The colony survival response entry in data set [2] and in data set [3] was “comparable survival responses” in each case.
Turning to “[^111In]In-DTPA-SCN-Trastuzumab: Trastuzumab radiolabeled with Indium-111, surrogate of the 225Ac-labeled antibody for biodistribution”, the “mean tumor uptake of injected radioactivity” value in data set [4] was “significantly greater mean tumor uptake”.

The values are drawn from patent US20230241256A1, “NON-INTUITIVE COMBINATION OF DRUG DELIVERY CARRIERS OF THE SAME DRUG FOR SYNERGISTIC GROWTH DELAY OF SOLID TUMORS” (The Johns Hopkins University, priority 2020, published 2023).
